Test results as given in patent publication US20140072613A1, “Compositions and Methods for Treating Cutaneous Scarring” (priority 2012, published 2014).
Read-outs that look alike come from different tables or passages of the source.

Protein sequences, listed by entry. Tags and fused reporters are not part of them. Lines headed by an entry give the natural chain unless they say otherwise; changes in a name come on top. Residues count along the entry.
UniProt P11362, 22-822 V561M: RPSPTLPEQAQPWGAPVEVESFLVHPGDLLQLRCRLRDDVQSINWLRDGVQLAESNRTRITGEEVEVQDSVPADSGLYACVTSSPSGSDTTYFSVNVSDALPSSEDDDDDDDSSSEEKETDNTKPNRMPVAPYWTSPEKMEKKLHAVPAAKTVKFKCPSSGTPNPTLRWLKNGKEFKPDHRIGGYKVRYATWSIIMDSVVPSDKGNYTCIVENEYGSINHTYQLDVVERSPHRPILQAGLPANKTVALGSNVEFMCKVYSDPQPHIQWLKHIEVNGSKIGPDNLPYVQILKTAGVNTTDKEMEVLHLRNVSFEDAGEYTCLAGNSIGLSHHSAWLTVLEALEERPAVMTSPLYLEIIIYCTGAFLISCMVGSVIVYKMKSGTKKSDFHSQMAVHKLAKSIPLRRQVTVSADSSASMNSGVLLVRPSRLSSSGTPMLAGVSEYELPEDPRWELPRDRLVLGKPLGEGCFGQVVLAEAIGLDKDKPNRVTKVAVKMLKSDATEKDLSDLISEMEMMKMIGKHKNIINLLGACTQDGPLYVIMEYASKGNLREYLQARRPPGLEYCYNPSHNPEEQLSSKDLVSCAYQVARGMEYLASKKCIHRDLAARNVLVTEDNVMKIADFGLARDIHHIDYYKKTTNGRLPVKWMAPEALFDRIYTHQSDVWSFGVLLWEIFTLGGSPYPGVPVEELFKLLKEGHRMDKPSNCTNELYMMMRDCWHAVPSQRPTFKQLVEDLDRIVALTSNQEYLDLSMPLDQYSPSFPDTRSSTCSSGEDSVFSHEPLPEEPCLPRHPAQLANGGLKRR
UniProt O75914, whole entry: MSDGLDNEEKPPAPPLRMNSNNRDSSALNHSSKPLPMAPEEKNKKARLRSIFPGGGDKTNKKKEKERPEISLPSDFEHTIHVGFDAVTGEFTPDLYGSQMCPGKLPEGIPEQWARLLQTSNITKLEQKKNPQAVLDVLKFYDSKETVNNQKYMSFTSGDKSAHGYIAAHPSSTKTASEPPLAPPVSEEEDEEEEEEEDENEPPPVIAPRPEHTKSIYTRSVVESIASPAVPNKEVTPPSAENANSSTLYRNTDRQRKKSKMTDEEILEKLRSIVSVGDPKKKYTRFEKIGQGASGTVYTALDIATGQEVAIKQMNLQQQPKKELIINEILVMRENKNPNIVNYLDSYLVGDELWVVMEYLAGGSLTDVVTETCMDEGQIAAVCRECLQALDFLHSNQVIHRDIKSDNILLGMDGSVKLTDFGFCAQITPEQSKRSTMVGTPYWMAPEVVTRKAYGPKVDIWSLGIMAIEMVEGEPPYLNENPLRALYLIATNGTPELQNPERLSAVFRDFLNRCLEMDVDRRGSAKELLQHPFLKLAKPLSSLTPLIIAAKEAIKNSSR
UniProt Q9Y6M4: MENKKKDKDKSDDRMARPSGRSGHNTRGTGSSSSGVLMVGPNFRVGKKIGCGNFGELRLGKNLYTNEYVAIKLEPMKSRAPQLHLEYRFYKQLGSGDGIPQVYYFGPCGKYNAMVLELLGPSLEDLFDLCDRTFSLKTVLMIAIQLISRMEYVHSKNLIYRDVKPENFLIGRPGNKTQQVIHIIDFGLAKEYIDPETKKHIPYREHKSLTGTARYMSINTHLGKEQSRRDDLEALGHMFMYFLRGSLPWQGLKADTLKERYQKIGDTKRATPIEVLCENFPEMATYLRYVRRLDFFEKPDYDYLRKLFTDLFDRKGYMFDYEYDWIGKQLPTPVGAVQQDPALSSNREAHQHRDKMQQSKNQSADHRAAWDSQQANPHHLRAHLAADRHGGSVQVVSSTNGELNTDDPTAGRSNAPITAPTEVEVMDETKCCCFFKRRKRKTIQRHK
UniProt P78368: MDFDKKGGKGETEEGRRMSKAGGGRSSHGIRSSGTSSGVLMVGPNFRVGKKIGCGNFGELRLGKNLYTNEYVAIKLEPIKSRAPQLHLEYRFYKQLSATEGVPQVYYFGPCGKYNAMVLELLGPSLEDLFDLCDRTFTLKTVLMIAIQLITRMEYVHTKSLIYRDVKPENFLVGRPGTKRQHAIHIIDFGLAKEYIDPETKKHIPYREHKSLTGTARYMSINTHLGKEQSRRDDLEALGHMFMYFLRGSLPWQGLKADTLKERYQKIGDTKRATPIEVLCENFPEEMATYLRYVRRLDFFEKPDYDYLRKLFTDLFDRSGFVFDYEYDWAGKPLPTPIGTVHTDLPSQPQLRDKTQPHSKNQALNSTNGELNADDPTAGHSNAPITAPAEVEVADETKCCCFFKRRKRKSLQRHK
UniProt Q9HCP0: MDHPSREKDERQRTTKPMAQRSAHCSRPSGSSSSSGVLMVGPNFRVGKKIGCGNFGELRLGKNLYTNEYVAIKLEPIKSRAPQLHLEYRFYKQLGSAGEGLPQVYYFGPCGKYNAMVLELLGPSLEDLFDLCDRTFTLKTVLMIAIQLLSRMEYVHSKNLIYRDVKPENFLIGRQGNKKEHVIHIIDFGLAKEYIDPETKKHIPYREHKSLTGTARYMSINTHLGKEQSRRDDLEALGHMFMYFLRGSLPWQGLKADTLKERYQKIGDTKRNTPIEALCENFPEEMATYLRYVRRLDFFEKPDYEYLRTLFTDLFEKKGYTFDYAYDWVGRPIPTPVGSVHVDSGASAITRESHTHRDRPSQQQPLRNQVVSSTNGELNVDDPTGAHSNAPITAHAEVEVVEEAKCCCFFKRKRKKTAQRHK
UniProt Q9NQU5: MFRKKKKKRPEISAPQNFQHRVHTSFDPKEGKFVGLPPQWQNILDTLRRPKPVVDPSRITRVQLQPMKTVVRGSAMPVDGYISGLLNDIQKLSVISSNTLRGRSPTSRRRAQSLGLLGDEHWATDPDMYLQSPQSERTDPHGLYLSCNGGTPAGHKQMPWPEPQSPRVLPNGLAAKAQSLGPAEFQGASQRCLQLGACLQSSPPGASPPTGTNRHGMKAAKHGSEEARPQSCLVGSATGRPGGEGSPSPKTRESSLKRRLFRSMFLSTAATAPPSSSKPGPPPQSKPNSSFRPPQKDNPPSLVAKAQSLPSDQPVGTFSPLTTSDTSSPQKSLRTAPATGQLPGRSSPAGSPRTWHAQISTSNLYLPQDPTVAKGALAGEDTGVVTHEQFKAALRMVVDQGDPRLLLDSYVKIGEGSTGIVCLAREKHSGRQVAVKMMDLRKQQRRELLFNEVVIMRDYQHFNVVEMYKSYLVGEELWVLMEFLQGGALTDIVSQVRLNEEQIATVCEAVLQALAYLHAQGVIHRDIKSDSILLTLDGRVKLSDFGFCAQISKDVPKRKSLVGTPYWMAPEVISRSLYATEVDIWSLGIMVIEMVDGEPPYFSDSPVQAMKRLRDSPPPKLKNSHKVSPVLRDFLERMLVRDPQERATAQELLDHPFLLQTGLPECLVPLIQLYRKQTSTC

Assays:
[1] = test system: scar-related genes (ccl2, ccr2, col1α2, col 3α1, emr1, IL-6, TGF-β1); test: qRT-PCR of scar related gene transcripts in scar area (mouse hypertrophic scarring model); assay type: in vivo; conditions: 50 μg/kg intraperitoneal daily; PBS n=3, MMI n=6
[2] = test system: immunomodulatory and stem cells in the scar region; test: FACS population analysis of immunomodulatory and stem cells in the scar region (mouse hypertrophic scarring model); assay type: in vivo; conditions: MMI-0300 treatment vs PBS
Fgr (h) = Fgr (h) (Homo sapiens, UniProt P09769); conditions: 100 μM
Source text: (§1) Specifically, in these assays, a positively charged substrate is phosphorylated with a radiolabeled phosphate group from an ATP if the kinase is not inhibited by an inhibitor peptide. The positively charged substrate then is attracted to a negatively charged filter membrane, quantified with a scintillation counter, and compared to a 100% activity control.

266 human kinases [3] = molecular target: T1, 266 human kinases (Homo sapiens, UniProt O14733); assay type: biochemical; conditions: MKK7β(h); 100 μM
T1 sequence (O14733 1-419): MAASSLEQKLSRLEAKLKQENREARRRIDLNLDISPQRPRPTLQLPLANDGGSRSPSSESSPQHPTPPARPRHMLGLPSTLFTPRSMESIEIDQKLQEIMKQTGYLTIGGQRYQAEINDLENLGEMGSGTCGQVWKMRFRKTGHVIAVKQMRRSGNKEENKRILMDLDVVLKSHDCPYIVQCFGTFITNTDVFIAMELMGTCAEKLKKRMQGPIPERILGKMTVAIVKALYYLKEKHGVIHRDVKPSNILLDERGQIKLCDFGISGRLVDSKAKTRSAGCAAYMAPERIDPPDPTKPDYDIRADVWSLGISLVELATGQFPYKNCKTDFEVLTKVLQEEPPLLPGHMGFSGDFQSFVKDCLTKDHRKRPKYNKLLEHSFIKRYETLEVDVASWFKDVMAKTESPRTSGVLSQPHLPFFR
Source text: as §1

266 human kinases [4] = molecular target: 266 human kinases (Homo sapiens, UniProt P11362, V561M); assay type: biochemical; conditions: FGFR1(V561M)(h); 100 μM
Source text: as §1

266 human kinases [5] = molecular target: 266 human kinases (Homo sapiens, UniProt O75914); assay type: biochemical; conditions: PAK3(h); 100 μM
Source text: as §1

266 human kinases [6] = molecular target: 266 human kinases (Homo sapiens, UniProt P21802, N549H); assay type: biochemical; conditions: FGFR2(N549H)(h); 100 μM
Source text: as §1

266 human kinases [7] = assay type: biochemical; conditions: 100 μM
Source text: as §1

266 human kinases [8] = molecular target: 266 human kinases (Homo sapiens, UniProt P34947); assay type: biochemical; conditions: GRK5(h); 100 μM
Source text: as §1

266 human kinases [9] = molecular target: 266 human kinases (Homo sapiens, UniProt P08069); assay type: biochemical; conditions: IGF-1R(h); 100 μM
Source text: as §1

266 human kinases [10] = molecular target: 266 human kinases (Homo sapiens, UniProt P53350); assay type: biochemical; conditions: Plk1(h); 100 μM
Source text: as §1

266 human kinases [11] = molecular target: 266 human kinases (Homo sapiens, UniProt P49760); assay type: biochemical; conditions: CLK2(h); 100 μM
Source text: as §1

266 human kinases [12] = molecular target: 266 human kinases (Homo sapiens, UniProt Q9Y6M4); assay type: biochemical; conditions: CK1γ3(h); 100 μM
Source text: as §1

266 human kinases [13] = molecular target: 266 human kinases (Homo sapiens, UniProt P78368); assay type: biochemical; conditions: CK1γ2(h); 100 μM
Source text: as §1

266 human kinases [14] = molecular target: 266 human kinases (Homo sapiens, UniProt P19784); assay type: biochemical; conditions: CK2α2(h); 100 μM
Source text: as §1

266 human kinases [15] = molecular target: 266 human kinases (Homo sapiens, UniProt Q9HCP0); assay type: biochemical; conditions: CK1γ1(h); 100 μM
Source text: as §1

266 human kinases [16] = molecular target: 266 human kinases (Homo sapiens, UniProt Q9NQU5); assay type: biochemical; conditions: PAK6(h); 100 μM
Source text: as §1

Sequence | expression of ccl2 and TGF-β1 in the scar area (qRT-PCR) vs control mice [1] | cell population in scar areas (FACS), young and old mice [2] | % activity (Fgr (h)) | % activity (266 human kinases [3]) | % activity (266 human kinases [4]) | % activity (266 human kinases [5]) | % activity (266 human kinases [6]) | % activity (266 human kinases [7]; JNK1α1(h)) | % activity (266 human kinases [7]; MAPK1(h)) | % activity (266 human kinases [8]) | % activity (266 human kinases [9]) | % activity (266 human kinases [10]) | % activity (266 human kinases [11]) | % activity (266 human kinases [12]) | % activity (266 human kinases [13]) | % activity (266 human kinases [14]) | % activity (266 human kinases [15]) | % activity (266 human kinases [16])
FAKLAARLYRKALARQLGVAA [MMI-0300] | considerable modulation in the expression of ccl2 and TGF-β1 | decreases in macrophages, and other monocyte-related and progenitor stem cells | – | – | – | – | – | – | – | – | – | – | – | – | – | – | – | –
HRRIKAWLKKIKALARQLGVAA (mammal) [MMI-0500] | – | – | 109% | 102% | 113% | 102% | 105% | 109% | 102% | 116% | 117% | 104% | 116% | 114% | 119% | 103% | 109% | 107%
